Laboratory results from article PMC6222329 (Molecules : A Journal of Synthetic Chemistry and Natural …, 2018).

Protein sequences, listed by entry. Tags and fused reporters are not part of them. Residues count along the entry.
UniProt P22303, 32-614: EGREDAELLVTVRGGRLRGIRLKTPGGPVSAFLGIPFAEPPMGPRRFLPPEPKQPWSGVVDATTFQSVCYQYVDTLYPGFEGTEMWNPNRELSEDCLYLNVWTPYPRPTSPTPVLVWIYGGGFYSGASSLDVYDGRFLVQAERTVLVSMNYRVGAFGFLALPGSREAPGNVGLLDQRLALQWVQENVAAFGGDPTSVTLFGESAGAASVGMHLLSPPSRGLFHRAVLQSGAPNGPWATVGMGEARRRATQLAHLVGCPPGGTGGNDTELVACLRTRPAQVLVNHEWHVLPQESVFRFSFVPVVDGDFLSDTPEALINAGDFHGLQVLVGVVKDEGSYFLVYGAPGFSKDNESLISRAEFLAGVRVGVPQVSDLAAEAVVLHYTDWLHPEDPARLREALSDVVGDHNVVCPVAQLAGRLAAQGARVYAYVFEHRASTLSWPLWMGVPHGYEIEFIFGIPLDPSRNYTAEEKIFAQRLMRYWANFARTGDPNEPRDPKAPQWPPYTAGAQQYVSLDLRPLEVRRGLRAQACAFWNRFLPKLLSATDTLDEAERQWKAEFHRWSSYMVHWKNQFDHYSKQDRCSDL
UniProt O42275, 24-633: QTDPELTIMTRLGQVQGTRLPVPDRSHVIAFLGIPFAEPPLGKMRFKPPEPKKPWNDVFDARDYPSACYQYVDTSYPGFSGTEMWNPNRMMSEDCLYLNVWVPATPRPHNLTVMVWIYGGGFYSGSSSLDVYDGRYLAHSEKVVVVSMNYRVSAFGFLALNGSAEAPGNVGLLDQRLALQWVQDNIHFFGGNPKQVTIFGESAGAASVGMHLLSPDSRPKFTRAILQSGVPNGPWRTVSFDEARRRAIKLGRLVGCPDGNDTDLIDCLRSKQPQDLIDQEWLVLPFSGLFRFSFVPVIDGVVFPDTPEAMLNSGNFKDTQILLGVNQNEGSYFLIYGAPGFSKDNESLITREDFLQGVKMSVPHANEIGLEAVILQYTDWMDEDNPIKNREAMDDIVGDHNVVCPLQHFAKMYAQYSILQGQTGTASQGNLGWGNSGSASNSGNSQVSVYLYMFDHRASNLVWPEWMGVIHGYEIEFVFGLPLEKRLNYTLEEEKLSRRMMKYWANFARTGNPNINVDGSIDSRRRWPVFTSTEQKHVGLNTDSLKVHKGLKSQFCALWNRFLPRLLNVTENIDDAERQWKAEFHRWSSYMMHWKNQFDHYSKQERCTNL

Assays:
AChE (Human) = target: T1, AChE (Human) (Homo sapiens, UniProt P22303); assay: AChE inhibition, Ellman's method; type: biochemical
T1 construct: purchased Sigma-Aldrich (Steinheim, Germany)

[1] = target: T2, AChE (Electrophorus electricus) (Electrophorus electricus, UniProt O42275); assay: AChE inhibition, Ellman's method; type: biochemical
T2 construct: purchased Sigma-Aldrich (Steinheim, Germany)

In the case of `Nc1c2ccccc2nc2ccccc12` [Aminoacridine, 9-aminoacridine, reference compound], the IC50 (AChE (Human)) is reported as 1.34 ± 0.047 µM and the IC50 [1] is reported as 1.75 ± 0.072 µM.
